The nature of data set [1]: In vivo pharmacokinetic experiment in mice. Conditions: CD-1 mice.
Data set [2] has as its target FAK recombinant protein (Homo sapiens, UniProt Q05397). Kind of data set: Inhibitory activity against FAK enzyme. Conditions: read-out: Inhibitory activity against FAK enzyme IC50, TK substrate, ATP.
In data set [3] the test system is PC3 cells. Briefly: PC3 cell proliferation, 2D activity detection. In kind it is cell-based, human. Conditions: read-out: 2D IC50 against PC3 cells; PC3, 2D, 72 h, class symbol.
Data set [4] has as its system PC3 cells. Briefly: PC3 cell proliferation, 3D activity detection. In kind it is cell-based, human. The conditions noted are these: read-out: 3D IC50 against PC3 cells; PC3, 3D culture, 14 days, class symbol.

Chains of the proteins cited; added tags and fusions are not shown.
UniProt Q05397, whole entry: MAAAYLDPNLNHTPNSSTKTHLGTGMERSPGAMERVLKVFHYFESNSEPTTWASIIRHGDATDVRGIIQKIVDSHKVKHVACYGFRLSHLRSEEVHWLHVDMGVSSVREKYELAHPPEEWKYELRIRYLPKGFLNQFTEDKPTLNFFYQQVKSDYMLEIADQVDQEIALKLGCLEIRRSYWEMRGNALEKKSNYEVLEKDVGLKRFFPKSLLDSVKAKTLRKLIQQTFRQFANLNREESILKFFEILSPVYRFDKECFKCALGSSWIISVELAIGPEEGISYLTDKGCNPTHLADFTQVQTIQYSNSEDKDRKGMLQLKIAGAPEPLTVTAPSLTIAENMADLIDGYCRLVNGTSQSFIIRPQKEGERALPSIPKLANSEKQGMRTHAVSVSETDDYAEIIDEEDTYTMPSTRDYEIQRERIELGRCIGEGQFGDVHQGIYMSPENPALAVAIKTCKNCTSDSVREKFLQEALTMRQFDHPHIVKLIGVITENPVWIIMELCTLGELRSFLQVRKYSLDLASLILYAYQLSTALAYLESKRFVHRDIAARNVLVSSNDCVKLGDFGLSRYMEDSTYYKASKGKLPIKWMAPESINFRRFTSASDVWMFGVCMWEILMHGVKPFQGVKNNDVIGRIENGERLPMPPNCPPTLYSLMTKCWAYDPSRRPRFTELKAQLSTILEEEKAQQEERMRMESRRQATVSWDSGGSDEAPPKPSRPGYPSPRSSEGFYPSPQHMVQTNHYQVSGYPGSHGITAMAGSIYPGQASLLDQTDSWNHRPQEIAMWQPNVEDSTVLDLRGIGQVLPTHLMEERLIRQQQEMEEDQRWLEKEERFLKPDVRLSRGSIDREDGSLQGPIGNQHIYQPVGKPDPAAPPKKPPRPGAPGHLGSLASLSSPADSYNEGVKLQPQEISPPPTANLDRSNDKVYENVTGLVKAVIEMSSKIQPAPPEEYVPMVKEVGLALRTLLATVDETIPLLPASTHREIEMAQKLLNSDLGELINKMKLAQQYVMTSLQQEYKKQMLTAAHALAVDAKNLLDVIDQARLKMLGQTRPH

In data set [1] (injection (IV) 2 mg/kg), `COc1cc(C(=O)NC2CCN(C)CC2)c(F)cc1Nc1ncc(C(F)(F)F)c(Oc2cccc3c2C(=O)N(C)C3)n1` came in with an AUC0-last of 1479.26 ng·h/mL, a Cl of 22.53 mL/min/kg, a T1/2 of 3.62 h and a distribution volume (Vdss) of 5.03 L/kg. In data set [1] (oral administration 10 mg/kg), the peak concentration (Cmax) turned out to be 635.67 ng/mL, the T1/2 turned out to be 3.10 h and the Tmax is given as 4 h. In addition, in data set [1] (oral administration 10 mg/kg vs injection), the F % is listed as 100.72%.
For `C=Cc1cc(C(=O)NC2CC3(CCN(C)CC3)C2)c(F)cc1Nc1ncc(C(F)(F)F)c(Oc2cccc3c2C(=O)N(C)C3)n1`, the IC50 in data set [2] was less than 10 nM; in data set [3] it was greater than 2000 nM; in data set [4], 5 to 50 nM.

The Vdss is the apparent volume that relates the amount in the body to the concentration in plasma or blood. Usually Cmax stands for the peak of the concentration-time curve. In general, Tmax refers to the time at which the peak concentration occurs. As a reminder, the IC50 is the midpoint of a concentration-inhibition curve.

These data come from US20260159499A1, “COMPOUND AS FAK INHIBITOR AND USE THEREOF” (WIGEN BIOMEDICINE TECHNOLOGY (SHANGHAI) CO., LTD., priority 2021, published 2026).
